Assay results as given in patent US11559536B2, “Compositions and methods for the treatment of inflammation in urological pathology” (Duke University, priority 2019, dated 2023).

Assays:
[1] = test system: caspase-1 activation in urothelial cells; experiment: Caspase-1 assay in isolated rat urothelial cells treated with stone DAMPs, with or without inhibitors
[2] = 24 h after CP 150 mg/kg, GLY 2.5 mg/kg, Mesna 40 mg/kg

In the case of O=P1(N(CCCl)CCCl)NCCCO1 (stereo not shown) [CP, cyclophosphamide], the “Evans blue extravasation in the hippocampus (blood brain barrier breakdown)” value (“Evans blue extravasation” below) (CP-induced cystitis; rat, in vivo) is reported as “significant increase in Evans blue extravasation”.

In the case of COc1ccc(Cl)cc1C(=O)NCCc1ccc(S(=O)(=O)NC(=O)NC2CCCCC2)cc1 [GLY, glyburide], the “Evans blue extravasation” value (CP-induced cystitis; [2]) is reported as “reduced the dye extravasation to levels not significantly different from controls”.

O=S(=O)([O-])CCS.[Na+] [Mesna, 2-mercaptoethane sulfonate sodium] was tested, and the “Evans blue extravasation” value (CP-induced cystitis; [2]) was “reduced the dye extravasation to levels not significantly different from controls”.

In the case of COc1ccc(CCN(C)CCCC(C#N)(c2ccc(OC)c(OC)c2)C(C)C)cc1OC (stereo not shown) [Verapamil], the “dose sufficient to completely inhibit CPPD-mediated caspase-1 activation” value [1] is reported as 150 µM.

Like-named read-outs stand apart in the source and are kept apart here.
